Laboratory results from paper PMC5766103 (PLoS ONE, 2018).

The chains behind the UniProt entries cited, without tags or fusion partners. Residues count along the entry.
UniProt Q16552, 24-155: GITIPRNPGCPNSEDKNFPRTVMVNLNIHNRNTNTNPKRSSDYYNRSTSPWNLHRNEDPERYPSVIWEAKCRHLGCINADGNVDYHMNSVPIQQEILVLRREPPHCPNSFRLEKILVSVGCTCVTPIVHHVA

Tests used:
IL-17A = molecular target: T1, IL-17A (Homo sapiens, UniProt Q16552); experiment: Surface plasmon resonance (BIAcore T200) binding of peptides to captured Avi-tagged IL-17A; settings: for SPR ka1 / SPR kd1: 8°C, 50 μl/min, 10 mM HEPES pH 7.5, 150 mM NaCl, 0.005% P20, 3% DMSO, global fit, 1:1 binding model
T1 construct: His-tag; Flag-tag; made in house; host or cells: Sf9 insect cells (baculovirus)

IL-17RA:IL-17A = experiment: ELISA-based binding assay IL-17RA:IL-17A; type: biochemical, human; settings: peptide 10 μM, biotinylated IL-17A 250 ng/mL pre-incubated 1 h with peptide, 30 min on IL-17RA-Fc plate, mean of duplicates
human IL-17A = experiment: Cell-based neutralization assay: IL-17A-induced CXCL1/GROα in HT-29 cells; settings: 60 ng/mL human IL-17A, peptide 10 μM, ~48 h, CXCL1/GROα ELISA, mean of duplicate treatments

SMILES | SPR ka1 (IL-17A) [M⁻¹ s⁻¹] | SPR kd1 (IL-17A) [s⁻¹] | fold tighter KD than parent peptide 18–1 (IL-17A; SPR KD of 585–1 versus 18–1) [fold] | fold faster kon than 18–1 peptide (IL-17A; SPR kon of 585–1 versus 18–1) [fold] | inhibition of human IL-17A binding to IL-17RA (IL-17RA:IL-17A) [%] | inhibition of IL-17A-induced CXCL1 production (human IL-17A) [%] | fold higher affinity than parent peptide after affinity maturation (IL-17A; SPR affinity versus parent peptide) [fold]
CSCC[C@H](NC(=O)[C@H](Cc1c[nH]cn1)NC(=O)[C@@H]1CSSC[C@H](NC(=O)[C@@H](NC(=O)[C@H](C)NC(=O)[C@H](CO)NC(=O)[C@H](CO)NC(=O)[C@@H](N)CC(=O)O)C(C)C)C(=O)N[C@@H](Cc2c[nH]c3ccccc23)C(=O)N[C@@H](C)C(=O)N[C@@H](Cc2ccccc2)C(=O)N2CCC[C@H]2C(=O)N[C@@H](Cc2c[nH]cn2)C(=O)N[C@@H](Cc2c[nH]cn2)C(=O)N2CCC[C@H]2C(=O)N[C@@H](CC(C)C)C(=O)N1)C(=O)N[C@@H](CCCCN)C(=O)N[C@@H](C)C(=O)N[C@H](C(=O)O)[C@@H](C)O [585–1] | 89900 | 0.01315 | 84 | 39 | 44.6 | 42.5 | 
CC(C)C[C@H](NC(=O)[C@@H](N)CC(=O)O)C(=O)N[C@@H](CO)C(=O)N[C@@H](C)C(=O)N[C@H](C(=O)N[C@H]1CSSC[C@@H](C(=O)N[C@@H](Cc2c[nH]cn2)C(=O)O)NC(=O)[C@H](CCC(=O)O)NC(=O)[C@@H]2CCCN2C(=O)[C@H](CC(=O)O)NC(=O)[C@H](Cc2c[nH]c3ccccc23)NC(=O)[C@@H]2CCCN2C(=O)[C@H](Cc2ccccc2)NC(=O)[C@H](C)NC(=O)[C@H](Cc2c[nH]c3ccccc23)NC1=O)C(C)C [585–870] | 224000 | 0.00658 |  |  | 82.5 | 76.6 | 5
